From patent US20240173312A1, “Pharmaceutical Composition Comprising a Benzoheterocyclic Compound and Androgen Receptor Pathway Modulator and Application Thereof” (KANGPU BIOPHARMACEUTICALS, LTD., priority 2015, published 2024)

Tested on: Vcap cells (androgen receptor (+) prostate cancer cells)
Experiment: CTG cell proliferation assay (CellTiter-Glo)
Conditions: for viability at 0.1 µM / viability at 1 µM / viability at 10 µM: Homo sapiens, VCaP, 120 h
[1] = read-out: Survival rate of Vcap cells, Table 3, tested compound alone
[2] = read-out: Survival rate of Vcap cells, Table 9, tested compound alone
[3] = read-out: Survival rate of Vcap cells, Table 10, tested compound alone

## CNC(=O)c1ccc(N2C(=S)N(c3cnc(C#N)c(C(F)(F)F)c3)C(=O)C23CCC3)cc1F [ARN-509, reference compound]
[1]
  viability at 0.1 µM: 81.8%
  viability at 10 µM: 48.9%
read-out: Survival rate of Vcap cells, Table 3, tested compound alone, 1.0 μM
  viability at 1 µM: 52.2%
[2]
  viability at 0.1 µM: 95.9%
  viability at 10 µM: 61.9%
read-out: Survival rate of Vcap cells, Table 9, tested compound alone, 1.0 μM
  viability at 1 µM: 70.4%
[3]
  viability at 0.1 µM: 95.9%
  viability at 10 µM: 61.9%
read-out: Survival rate of Vcap cells, Table 10, tested compound alone, 1.0 μM
  viability at 1 µM: 70.4%
Table 3, tested compound alone, 1.0 μM
  Survival rate of Vcap cells: 52.2%
Table 9, tested compound alone, 1.0 μM
  Survival rate of Vcap cells: 70.4%
Table 10, tested compound 0.1 μM in combination with 1 μM B001
  Survival rate of Vcap cells: 50.9%
Table 10, tested compound 0.1 μM in combination with 1 μM K001
  Survival rate of Vcap cells: 54.1%
Table 10, tested compound 1.0 μM in combination with 1 μM B001
  Survival rate of Vcap cells: 42.6%
Table 10, tested compound 1.0 μM in combination with 1 μM K001
  Survival rate of Vcap cells: 45.1%
Table 10, tested compound 10 μM in combination with 1 μM B001
  Survival rate of Vcap cells: 40.9%
Table 10, tested compound 10 μM in combination with 1 μM K001
  Survival rate of Vcap cells: 41.8%

Where two headings read alike, the source gives them in different places.
